Apparent affinities of Ab-95 variants for a coronavirus HR2 peptide

From the AlphaSeq antibody data of Engelhart et al. 2022 (doi:10.1038/s41597-022-01779-4), copy in the FLAb collection.

Antigen: PDVDLGDISGINAS, a 14-residue peptide of the SARS-CoV-2 spike HR2 region.

Parent scFv Ab-95: VH joined to VL by a 15-residue (Gly4Ser)3 linker. Changes lie in the light chain CDRs alone.
VH: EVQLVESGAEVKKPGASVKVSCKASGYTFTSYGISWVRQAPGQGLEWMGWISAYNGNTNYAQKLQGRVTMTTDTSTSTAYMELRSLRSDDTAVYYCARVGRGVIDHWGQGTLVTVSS
VL: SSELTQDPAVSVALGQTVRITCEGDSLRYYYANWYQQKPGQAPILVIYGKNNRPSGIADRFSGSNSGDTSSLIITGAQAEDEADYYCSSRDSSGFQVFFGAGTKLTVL

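The parent was found by panning a naive human phage display library on the peptide. Variants in AAYL52 differ from the parent at up to three CDR positions; double and triple changes were sampled at random. Affinity was read by AlphaSeq, a pooled yeast mating assay with surface-displayed partners. Binding brings cells together so that they mate, and sequencing counts the barcode pairs among the diploids. A regression on co-assayed BCL2-family reference pairs converts the normalised counts of each replicate to an apparent Kd. Each pool was mated in three replicate cultures.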

The parent's light chain CDRs are EGDSLRYYYAN, GKNNRPS, SSRDSSGFQVF; each variant's own CDRs replace them letter for letter. Values are log10 of the apparent Kd in nM; lower means stronger binding. A mean of the replicates is given; it leaves out those without a signal. An entry "ND" has no value in the source: the pair was not observed among the diploids in that replicate. This suggests poor binding but is not conclusive. Three control strains display no target. For library AAYL52, 28% of the pairings with them gave a signal, with a median of 3.91 and one signal in twenty below 2.90, so weak values seen in few replicates may be background. Also given: how often the same scFv was detected with the empty control strains, with their mean in brackets. Parent in this assay: reference entry 2.31, copy in this library 2.25.

CDR-L1	CDR-L2	CDR-L3	replicates, log10 nM	log10 Kd (nM), mean	control signals
EGESLRYYYAN	GKNNRPA	SSRDSSGFQVF	1.87 1.72 1.73	1.77	2/9 (5.54)
EGDSLRYYYAN	GKNNRQS	SSRWSSNFQVF	2.71 2.95 4.28	3.31	4/9 (3.40)
EGDSLRYYYAN	GKNGRPW	SSRTSSGFQVF	2.95 3.32 3.44	3.24	5/9 (3.89)
EGDSLRYYYAN	GCENRPS	SSRDSMGFQVF	4.62 ND 4.22	4.42	1/9 (4.84)
EGDSLRYYYAN	GKNTTPN	SSRDSSGFQVF	2.69 2.94 2.37	2.67	3/9 (3.62)
EGDSLRYYYAN	GKINRPS	SSRDSMGFQVF	4.28 3.63 4.33	4.08	3/9 (4.27)
EGDSLRYYYAN	GKNNRPN	SSRASSGFPVF	2.59 2.38 2.13	2.37	7/9 (4.02)
ENDSLRYYYAN	GKNNRPS	SSRESSGFQVF	4.53 3.91 ND	4.22	4/9 (3.65)
EGDSLRYYYAN	GKNNRPS	SSRNSSNNQVF	ND ND 3.51	3.51	1/9 (3.43)
EGNSLRYYYAL	GKNNRPS	SSKDSSGFQVF	ND ND ND	ND	1/9 (3.61)
EGDSLRYYYAT	GKNNRPS	PSRDSSGFQVF	ND ND ND	ND	1/9 (4.35)
GGDSLPYYYAN	GKNNRPS	SSRDSSLFQVF	2.85 2.78 1.90	2.51	2/9 (3.71)
EGDSLRYYYAN	SKNYRPS	SSRDQSGFQVF	3.05 3.37 3.17	3.20	4/9 (3.41)
EGDSERYYYAN	GKNNRPS	SSRDSSFFQVG	5.48 ND ND	5.48	1/9 (3.68)
EGDSLRYYYWN	GWNNRPS	SSRDSSKFQVF	4.18 ND ND	4.18	0/9
EGDSLRYYYAN	GKNNMPF	SSRDSSGFQVW	ND 4.28 3.25	3.77	0/9
EGRSSRDYYAN	GKNNRPS	SSRDSSGFQVF	3.75 3.40 2.96	3.37	2/9 (3.94)
EGDLLRYYYAN	GKNNRPS	VSRDCSGFQVF	3.13 ND ND	3.13	1/9 (3.02)
EGDSLRYYYMN	GKRNRPS	SSRDSSGFQVF	ND ND ND	ND	1/9 (5.29)
EGDSRRYYSAN	GKSNRPS	SSRDSSGFQVF	4.13 3.04 ND	3.59	0/9
EGDSLQYYIAN	GKNNRPS	SSRDSSGFQVF	3.40 3.73 ND	3.57	1/9 (4.04)
EGDSGRYIYAN	FKNNRPS	SSRDSSGFQVF	ND 4.25 3.62	3.94	5/9 (3.48)
EGDSLRYYYAN	GKNNRPS	RSRDSSQFQVF	3.14 3.88 ND	3.51	3/9 (3.54)
EGDSLRYYYAN	GKNNRRS	SPRVSSGFQVF	5.13 4.43 3.74	4.43	5/9 (3.89)
EGDDLRYYYAN	GKNNRLS	SSRDSSGFQIF	3.38 3.42 2.32	3.04	1/9 (4.24)
EGDSLRYYYAN	GHNNRPS	SSRGSSGFQVF	2.05 1.77 1.81	1.87	2/9 (3.87)
EGDSLRYYYAN	GHNNRPS	HSRCSSGFQVF	2.74 2.86 2.82	2.81	2/9 (3.90)
EGDSLRYYYAN	GKNNTPS	SSRPSSGFQHF	3.81 4.08 3.63	3.84	2/9 (3.69)
EGKSLRYYYAN	GKNNMPS	NSRDSSGFQVF	5.81 ND ND	5.81	3/9 (4.18)
EGDSLRYYYAN	GYNCRPS	YSRDSSGFQVF	ND 3.77 ND	3.77	4/9 (4.08)
EGDILRYYYRN	GKNARPS	SSRDSSGFQVF	ND ND 3.44	3.44	0/9
EGDSLRYYYAN	PKNNVPS	SSRDSSGFMVF	ND ND ND	ND	2/9 (4.20)
EQDSLRYYYAN	GKNERPS	SSRDSSGFQAF	ND ND ND	ND	0/9
EGDSLRYYHAW	GKNNRPS	SSRNSSGFQVF	ND 4.97 ND	4.97	2/9 (4.16)
EGDSLRYYYAN	GKNNRPS	SKRDGSGFKVF	4.27 ND ND	4.27	4/9 (4.06)
EGDKFRYYYEN	GKNNRPS	SSRDSSGFQVF	3.63 ND ND	3.63	1/9 (4.61)
EGDSLRIAYAN	GKNNRPS	SSRDSSGTQVF	1.93 1.71 1.39	1.68	3/9 (4.09)
EGDSLRYIYKN	GKNNRPS	SSEDSSGFQVF	ND ND ND	ND	2/9 (4.25)
EGDSLRYYYAN	GKPNRIS	SSRDSSGSQVF	5.41 4.29 ND	4.85	5/9 (3.90)

Picked from the list: the 4 lowest averages where every replicate gave a value.

CDR-L1,CDR-L2,CDR-L3,"replicates, log10 nM","log10 Kd (nM), mean",control signals
EGDSLRIAYAN,GKNNRPS,SSRDSSGTQVF,1.93 1.71 1.39,1.68,3/9 (4.09)
EGESLRYYYAN,GKNNRPA,SSRDSSGFQVF,1.87 1.72 1.73,1.77,2/9 (5.54)
EGDSLRYYYAN,GHNNRPS,SSRGSSGFQVF,2.05 1.77 1.81,1.87,2/9 (3.87)
EGDSLRYYYAN,GKNNRPN,SSRASSGFPVF,2.59 2.38 2.13,2.37,7/9 (4.02)